# Antibody variant affinities, Ab-14 heavy chain, assay B

Target peptide (SARS-CoV-2 spike, HR2 region): PDVDLGDISGINAS

The variants keep the light chain, the linker and the frameworks of Ab-14 (scFv order VH, a 15-residue (Gly4Ser)3 linker, VL).
VH: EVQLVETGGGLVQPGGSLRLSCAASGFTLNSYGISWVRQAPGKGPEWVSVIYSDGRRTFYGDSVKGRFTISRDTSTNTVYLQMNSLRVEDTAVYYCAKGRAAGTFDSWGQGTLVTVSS
VL: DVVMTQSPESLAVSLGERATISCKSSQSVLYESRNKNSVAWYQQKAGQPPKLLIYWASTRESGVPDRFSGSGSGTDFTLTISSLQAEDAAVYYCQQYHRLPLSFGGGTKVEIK

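Designed CDR sequences, proposed from the first random library and measured here. Their group label is 14H_En_HC (En: ensemble of fine-tuned language models; HC: hill climbing; a sequence that several methods proposed may carry one label only). AlphaSeq pools MATa yeast showing the antibodies with MATalpha yeast showing the peptide. Pairs that bind mate more often; barcode pairs of the diploids are counted by sequencing. The ratio of observed to expected reads was calibrated, replicate by replicate, on BCL2-family standards whose Kd was known from biolayer interferometry. Each pool was mated in six replicate cultures.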

Each variant is given by its three heavy chain CDRs, as the data file delimits them; those of the parent are GFTLNSYGIS, VIYSDGRRTFYGDSVK, GRAAGTFDS.
Scale: log10 of Kd in nM, estimated from mating counts; low values are strong binders.
"nd" means that the variant was in the library but no mating with the target was seen in that replicate; the authors take this as a sign of poor binding, and no number exists.

GFDLNEYGIS / VIYADGRRTAYSDSVK / GEAAGFFDE: nd, nd, nd, nd, nd, nd (controls 1 of 18).
GFDLDEYGIS / VIYADGRRTFYADSVK / GSNAGTFDI: -0.23, -0.30, -0.63, -0.64, -0.60, -0.54 (controls 0 of 18).
GFDLNEYGIS / VIYADGRRTFYADSVK / GNTAGTFDL: -0.61, -0.57, -0.96, -1.19, -0.61, -0.80 (controls 0 of 18).
GFDLDEYGIS / VIYADGRRTFYSDSVK / GKTAGTFDV: -0.74, -0.42, -0.56, -0.38, -0.98, -0.50 (controls 0 of 18).
GFDLNEYGIS / VIYADGRRTFYIDSVK / GEIAGTFVV: 0.16, -0.35, 0.42, 0.41, 0.93, 0.33 (controls 0 of 18).
GFNLNEYGIS / VIYADGKRTFYSDSVK / GEAAGTFDV: -0.26, -0.60, -0.32, -0.68, -0.63, -0.47 (controls 0 of 18).
GFDLNEYGIS / VIYADGRRTFYTDSVK / GEIAGTFDQ: 0.19, -0.13, -0.16, -0.21, 0.10, 0.43 (controls 0 of 18).
GFDLNEYGIS / VIYADGKRTFYADSVK / GNVAGTFIQ: 0.00, -0.39, -0.32, -0.71, 0.06, -0.32 (controls 0 of 18).
GFDLNEYGIS / VIYADGRRTYYADSVK / GNQAGTFDQ: -0.66, -0.36, -0.62, -0.55, -0.72, -0.55 (controls 0 of 18).
GFDLNEYGIS / VIYADGRRSFYADSVK / GQNAGTFDS: 0.15, -0.11, -0.23, -1.45, -0.17, 1.35 (controls 0 of 18).
GFDLNEYGIS / VIYADGVRTVYADSVK / GTNGGTFDV: -0.12, -0.19, -0.62, -0.42, -0.56, -0.42 (controls 0 of 18).
GFDLNEYGIS / VIYADGVRTFYADSVK / GQLAGTFDL: -0.68, -0.87, -0.88, -0.92, -0.57, -0.85 (controls 0 of 18).
GFDLNEYGIS / VIYADGRRTQYIDSVK / GETAGTFDV: 0.32, -0.11, -0.48, -0.77, -0.59, -0.33 (controls 0 of 18).
GFNLNEYGIS / VIYADGRRTFYADSVK / GQTAGTFDV: 0.28, -0.08, -0.16, -0.13, 0.25, -0.12 (controls 0 of 18).
GFDLNEYGIS / VIYADGRRTFYADSVK / GETAGTFNS: -0.04, -0.31, -0.19, -0.72, -0.18, -0.33 (controls 0 of 18).
GFDLNEYGIS / VIYADGMRTAYTDSVK / GNQAGTFDS: 0.90, 1.42, 0.56, 0.45, 0.23, 0.28 (controls 0 of 18).
GFDLNEYGIS / VIYADGRRTFYADSVK / GEAGGTFDM: -0.29, -0.64, -0.10, -0.26, -0.08, -0.01 (controls 0 of 18).
GFDLNEYGIS / VIYADGRRTAYQDSVK / GTNAGTFDQ: -0.56, -0.09, -0.33, -0.61, -0.13, -0.38 (controls 0 of 18).
GFDLNEYGIS / VIYADGVRTAYADSVK / GKVAGTFDS: -0.43, -0.51, -0.40, -0.35, -0.40, -0.25 (controls 0 of 18).
GFDLNEYGIS / VIYADGRRTAYIDSVK / GHAAGTFDQ: 0.00, -0.29, -0.03, -0.27, -0.05, 0.07 (controls 0 of 18).
GFDLDEYGIS / VIYADGMRTFYADSVK / GNVAGTFLS: 0.69, -0.02, 0.28, -0.39, -0.28, 0.28 (controls 0 of 18).
GFNLNEYGIS / VIYADGRRTFYADSVK / GQLAGTFDM: nd, nd, nd, nd, nd, nd (controls 0 of 18).
GFDLNEYGIS / VIYADGMRTFYDDSVK / GNLAGTFDF: -0.24, -0.53, -0.09, -0.77, -0.36, -0.38 (controls 0 of 18).
GFDLNEYGIS / VIYADGVRTFYTDSVK / GENAGTFDV: -0.46, -0.38, -0.45, -0.46, -0.38, -0.48 (controls 0 of 18).
GFDLESYGIS / VIYADGVRTAYADSVK / GNVAGTFDS: -0.38, -0.20, -0.28, -0.44, -0.34, -0.20 (controls 0 of 18).
GFDLNEYGIS / VIYADGRRTFYADSVK / GNVAGTFFM: -0.02, -0.26, 0.09, 0.05, -0.36, 0.92 (controls 1 of 18).
GFDLNEYGIS / VIYADGRRTAYIDSVK / GHTAGTFDS: -0.63, -0.66, -0.90, -0.96, -1.43, -0.76 (controls 0 of 18).
GFDLNEYGIS / VIYADGMRTFYADSVK / GTNGGTFDV: 0.11, 0.02, -0.24, -0.62, -0.44, -0.38 (controls 0 of 18).
GFDLNEYGIS / VIYADGMRTQYIDSVK / GNHAGTFDV: 0.09, -0.27, 0.42, 0.17, -0.08, 0.70 (controls 0 of 18).
GFNLNEYGIS / VIYADGRRTFYADSVK / GEAAGTFDM: nd, nd, nd, nd, nd, nd (controls 0 of 18).
GFDLNEYGIS / VIYADGRRTFYSDSVK / GENAGTFVS: 1.25, 1.25, 0.82, 1.00, 1.08, 1.26 (controls 1 of 18).
GFDLNEYGIS / VIYADGVRTSYADSVK / GEAAGTFDV: 1.20, 2.21, nd, 1.60, 2.15, 1.64 (controls 0 of 18).
GFDINEYGIS / VIYADGRRTFYTDSVK / GNNAGTFDS: -0.42, -0.30, -0.25, -0.69, 0.01, -0.13 (controls 0 of 18).
GFDLNEYGIS / VIYADGRRTFYSDSVK / GQEAGTFDV: -0.48, -0.70, -0.69, -0.61, -0.75, -0.59 (controls 0 of 18).
GFDLNEYGIS / VIYADGRRSFYADSVK / GQLAGTFDI: -0.55, -1.22, -1.25, -1.45, -1.41, -1.03 (controls 0 of 18).
GFNLNEYGIS / VIYADGRRTFYADSVK / GENAGTFDV: -0.56, -0.69, -0.47, -0.57, -0.69, -0.53 (controls 0 of 18).
GFNLDEYGIS / VIYADGRRTFYADSVK / GQQAGTFDM: 0.88, 0.61, 0.98, 1.11, 0.49, 0.83 (controls 0 of 18).
GFQLDEYGIS / VIYADGRRTFYQDSVK / GEVAGTFDV: -1.46, -1.81, -1.63, -0.22, -1.37, -1.17 (controls 0 of 18).

Top 4 of the variants detected in all replicates, tightest first:

Variant GFQLDEYGIS / VIYADGRRTFYQDSVK / GEVAGTFDV showed -1.46, -1.81, -1.63, -0.22, -1.37, -1.17 (controls 0 of 18).
Variant GFDLNEYGIS / VIYADGRRSFYADSVK / GQLAGTFDI showed -0.55, -1.22, -1.25, -1.45, -1.41, -1.03 (controls 0 of 18).
Variant GFDLNEYGIS / VIYADGRRTAYIDSVK / GHTAGTFDS showed -0.63, -0.66, -0.90, -0.96, -1.43, -0.76 (controls 0 of 18).
Variant GFDLNEYGIS / VIYADGVRTFYADSVK / GQLAGTFDL showed -0.68, -0.87, -0.88, -0.92, -0.57, -0.85 (controls 0 of 18).

The authors averaged sequences with at least three values out of six and counted those with two or fewer as poor binders.
Three control strains display no target. For all heavy chain designs, 1% of the pairings with them gave a signal, with a median of 2.08 and one signal in twenty below 0.84, so weak values seen in few replicates may be background. Also given: how often the same scFv was detected with the empty control strains.
A sequence measured in both rounds can read differently, since the two assays cover different ranges.
The parent sequence was in this pool as ten entries: three were never detected, three once, and four in most replicates, with averages from 0.34 to 2.37.

From the AlphaSeq antibody data of Li et al. 2023 (doi:10.1038/s41467-023-39022-2), copy in the FLAb collection.